Laboratory results reported in patent US11725096B2, “Zinc oxide complexes” (MARY KAY INC., priority 2010, dated 2023).

Test: Solubility / dissociation of the complexes in water

zinc oxide/salicylic acid complexes
dissociation in water: do not dissociate easily in water
